One assay deals with IKK-2 (Homo sapiens, UniProt O14920). Put plainly: IKK-2 filter kinase assay. To be noted: read-out: Inhibition of IKK-2 IC50, 1 μM ATP, 1-53 GST-IκB substrate.
The subject of assay [1] is human peripheral blood mononuclear cells (PBMCs). Put plainly: Inhibition of LPS-induced TNFα production by PBMCs. Conditions: read-out: Activity in PBMC Assay IC50, inhibition of LPS-stimulated TNFα production.

Protein sequences, listed by entry. Tags and fused reporters are not part of them.
UniProt O14920, whole entry: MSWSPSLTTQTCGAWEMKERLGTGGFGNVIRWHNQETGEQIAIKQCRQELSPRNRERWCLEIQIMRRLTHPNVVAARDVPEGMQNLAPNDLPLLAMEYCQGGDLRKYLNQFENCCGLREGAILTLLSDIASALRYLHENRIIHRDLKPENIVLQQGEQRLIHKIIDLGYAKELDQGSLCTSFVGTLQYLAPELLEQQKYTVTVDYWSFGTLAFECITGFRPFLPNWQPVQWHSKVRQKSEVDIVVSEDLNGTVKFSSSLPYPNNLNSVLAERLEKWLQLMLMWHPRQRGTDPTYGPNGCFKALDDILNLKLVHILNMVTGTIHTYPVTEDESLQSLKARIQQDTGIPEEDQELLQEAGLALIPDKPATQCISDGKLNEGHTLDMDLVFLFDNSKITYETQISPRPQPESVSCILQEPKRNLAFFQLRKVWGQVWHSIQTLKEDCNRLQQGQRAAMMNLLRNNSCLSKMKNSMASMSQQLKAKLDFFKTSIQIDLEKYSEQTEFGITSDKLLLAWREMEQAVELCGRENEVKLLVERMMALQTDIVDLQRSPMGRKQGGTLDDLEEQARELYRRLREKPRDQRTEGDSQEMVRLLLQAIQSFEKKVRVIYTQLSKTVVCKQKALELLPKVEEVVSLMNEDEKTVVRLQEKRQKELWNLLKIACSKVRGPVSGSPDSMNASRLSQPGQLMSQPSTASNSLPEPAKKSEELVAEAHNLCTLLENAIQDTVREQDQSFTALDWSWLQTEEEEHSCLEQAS

On to `CN(C)CCOc1ccc(-c2cc(C(N)=O)c(NC(N)=O)s2)cc1`, for which the IC50 at IKK-2 came out at 200 nM; in assay [1], 1010 nM.
The like results for `NC(=O)Nc1sc(-c2ccc(OCCN3CCCCC3)cc2)cc1C(N)=O` were, in that order, 320 nM and 1470 nM.
The like results for `NC(=O)Nc1sc(-c2ccc(OCCN3CCOCC3)cc2)cc1C(N)=O` were, in that order, 260 nM and 1150 nM.

By IC50 is commonly meant the midpoint of a concentration-inhibition curve.

Source of the values: patent US7572826B2, “Thiophene-carboxamide derivatives and their use as inhibitors of the enzyme IKK-2” (AstraZeneca AB, priority 2003, dated 2009).
